This note sets out measurements from patent US12428456B2, “Peptide directed protein knockdown” (University of British Columbia, priority 2012, dated 2025).

The chains behind the UniProt entries cited, without tags or fusion partners.
UniProt P31016, whole entry: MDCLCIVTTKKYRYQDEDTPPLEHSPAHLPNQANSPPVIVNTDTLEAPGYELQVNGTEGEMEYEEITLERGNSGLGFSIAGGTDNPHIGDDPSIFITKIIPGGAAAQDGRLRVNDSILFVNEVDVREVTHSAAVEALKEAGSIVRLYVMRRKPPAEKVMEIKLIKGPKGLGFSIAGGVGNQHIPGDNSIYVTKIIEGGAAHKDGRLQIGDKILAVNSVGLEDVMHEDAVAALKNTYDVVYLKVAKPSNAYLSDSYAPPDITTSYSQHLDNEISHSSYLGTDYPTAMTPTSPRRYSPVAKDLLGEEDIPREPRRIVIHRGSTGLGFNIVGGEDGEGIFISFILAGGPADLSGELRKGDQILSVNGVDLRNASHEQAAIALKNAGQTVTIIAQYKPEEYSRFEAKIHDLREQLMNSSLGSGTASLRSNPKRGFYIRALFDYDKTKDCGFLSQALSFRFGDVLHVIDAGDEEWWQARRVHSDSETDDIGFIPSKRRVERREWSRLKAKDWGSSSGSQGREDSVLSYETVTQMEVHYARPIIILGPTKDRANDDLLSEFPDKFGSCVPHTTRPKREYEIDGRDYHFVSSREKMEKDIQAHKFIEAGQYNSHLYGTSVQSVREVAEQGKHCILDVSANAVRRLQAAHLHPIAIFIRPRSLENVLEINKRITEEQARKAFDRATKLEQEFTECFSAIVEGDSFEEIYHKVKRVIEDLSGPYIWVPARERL

This assay has as its target T1, PSD95 (Rattus norvegicus, UniProt P31016).
T1 construct: endogenous in cells; host or cells: primary rat neurons
Kind of assay: Degradation of endogenous PSD95 in cultured neurons (immunoblot). To be noted: for effect on endogenous PSD95 level: 25 μM bath applied. It is filed as cell-based. The protocol:
Primary culture of cortical neurons. Dissociated cultures of rat cortical neurons were prepared from Sprague Dawley rat embryos collected from euthanized mothers 18 days after fertilization as previously described^35. Briefly, hippocampi and cerebral cortices were extracted from embryos and incubated for 30 min in 0.25% trypsin-EDTA. Digested tissues were dissociated by trituration and plated on poly-D-lysine-coated (Sigma, P7280) plates. Plating medium consisted of Neurobasal Media (Invitrogen, 21103-049) supplemented with B27 (Invitrogen, 17504044), glutamic acid (Sigma, G8415) and GlutaMax (Invitrogen, 35050-061). After 2 days, 2/3 of the media was replaced with fresh Neurobasal feeding media consisting of Neurobasal Media, B27 and GlutaMax. Cultures were maintained at 37° C. in a humidified 5% CO2 atmosphere. Mature neurons (14-18 days in vitro (DIV)) were used for experiments.
Immunoblotting. Immunoblotting assays were carried out as previously described^36. Briefly, proteins were extracted from neurons using a lysis buffer composed of 150 mM NaCl, 50 mM Tris, pH 7.4, 0.1% SDS, 1% NP-40, 0.5% sodium deoxycholate, 1 mM EDTA, 1 mM Na3VO4, and proteinase inhibitor mixture (Thermo Fisher, PI78442). Samples were separated on 10% SDS-PAGE gels, transferred to polyvinylidene difluoride (PVDF) membrane, and immunoblotted with respective antibodies. Blots were enhanced with chemiluminescence detection reagent kit (Fisher, 32106) and visualized with Bio-Rad imager and Quantity One software. Signal intensities from each band was quantified with Bio-Rad Image Lab software, and the bands were analyzed relative to their controls from the same membrane and experiment.

“YGRKKRRQRRRKLSSIESDV [TAT-NR2B9c, reference compound]”: the “effect on endogenous PSD95 level” value was “but not its control TAT-NR2B9c”. Besides, for the setting “listed as Tat-NR2B9c”, the “effect on endogenous PSD95 level” value was “but not Tat-NR2B9c”. For the setting “+3-MA”, the “effect of 3-methyladenine on PSD95 reduction” value is recorded as “failed to affect”.
